Source: article PMC8067754, “Active Transport of Hepatotoxic Pyrrolizidine Alkaloids in HepaRG Cells” (International Journal of Molecular Sciences, 2021)

Test system: HepaRG cells
Experiment: Time-dependent PA depletion and PANO formation in cell culture medium of HepaRG cells at 37 °C and 4 °C (LC-MS/MS)
Settings: for PA content in cell culture medium, Mean [%]: HepaRG, 700 nM PA, percent of initial PA concentration
Description: In order to measure time-dependent depletion of PA and PANO content in cell culture medium, cells were seeded at a density of 0.2 × 10^6 cells per well in a 6-well plate and cultivated as described in Section 4.2. After four weeks of cultivation, cells were adapted to serum-free medium and medium substituted with insulin, transferrin, selenium (ITS) serum extender (Capricorn Scientific, Ebsdorfergrund, Germany) 48 h prior to PA incubation for optimal LC-MS/MS measurements. […] Samples were taken after 2 h, 4 h, 8 h and 24 h.
Briefly, chromatographic separation of PA/PANO analytes was achieved on a 50 × 2.1 mm Kinetex ™ 2.6 μm CoreShell EVO C18 100 Å column protected by a SecurityGuard ™ ULTRA EVO C 18 2.1 mm guard column (both Phenomenex, Aschaffenburg, Germany) at a flow rate of 0.4 mL/min on a Shimadzu high performance liquid chromatography (HPLC) apparatus (LC-20AB, SIL-20AC HT, CTO-20AC, CBM-20A, Duisburg, Germany) coupled to an API4000 triple quadrupole MS (Sciex, Darmstadt, Germany). The following MS parameters were used for measurements in positive electrospray ionisation (ESI+) mode: ionisation voltage 2500 V, nebuliser gas 50 psi, heating gas 50 psi, curtain gas 30 psi, temperature 600 °C, collision gas level 7. The substance specific parameters are summarized in Kaltner et al. 2019 [79].

SMILES: CC(C)[C@](O)(C(=O)OCC1=CCN2CC[C@@H](O)[C@@H]12)[C@@H](C)O [Lycopsamine, lycopsamine]
- PA content in cell culture medium, Mean [%] (4 °C (cold), 4h): 111.556%
- PA content in cell culture medium, Mean [%] (4 °C (cold), 8h): 112.264%
- PA content in cell culture medium, Mean [%] (4 °C (cold), 24h): 108.52%
- PA content in cell culture medium, Mean [%] (37 °C (warm), 0h): 113.456%
- PA content in cell culture medium, Mean [%] (37 °C (warm), 8h): 108.305%
- PA content in cell culture medium, Mean [%] (37 °C (warm), 24h): 117.807%
- PA in medium, single replicates (repl.) (cold, 2h): 104.784% and 100.653%
- PA in medium, single replicates (repl.) (cold, 4h): 93.1897% and 99.494%
- PA in medium, single replicates (repl.) (cold, 8h): 102.472%
- PA in medium, Mean [%] (cold, 24h): 93.4772%
- PA in medium, single replicates (repl.) (warm, 2h): 96.4897% and 102.606%
- PA in medium, single replicates (repl.) (warm, 4h): 86.3336% and 104.251%
- PA in medium, single replicates (repl.) (warm, 8h): 103.458%
- PA in medium, Mean [%] (warm, 24h): 102.497%
- PA in medium, single replicates (repl.) (warm, 24h): 106.777% and 108.062%

“And” between values parts separate entries of the source, which are not always exact repeats. Equal entries are not always repeated.
